The subject of data set [1] is thymidine kinase locus of L5178Y TK± mouse lymphoma cells. Nature of the data set: Mouse lymphoma study. Particulars: with and without S9; initial data.
In data set [2] the test system is Salmonella typhimurium strains TA98, TA100, TA1535 and TA1537 and Escherichia coli strain WP2 uvrA. As to conditions: with and without S9; initial data.

Where a SMILES comes first, the peptide text is derived from it. [ ]: non-standard residue; d: D form. The star is where a group is joined. Tle = CC(C)(C)[C@H](N)C(=O)O; X1 = C[C@@H](CCCCCN)C(=O)*

As to `CC(C)C[C@H](NC(=O)[C@@H](NC(=O)[C@H](Cc1ccc(O)cc1)NC(=O)[C@@H]1CCCN1C(=O)[C@H](CCCNC(=N)N)NC(=O)[C@@H](C)CCCCCN)C(C)(C)C)C(=O)O` [ABS201, hLys-Arg-Pro-Tyr-t-Leu-Leu] (X1-RPY[Tle]L-OH), the “mouse lymphoma study result” value in data set [1] is “inactive”. Further, the Ames study result in data set [2] is “inactive”.

Values taken from patent publication US20080234202A1, “Non-natural amino acids and neurotensin analogues” (priority 2004, published 2008).
